Columns and labels:
[1] = target: T1, cloned human kappa opioid receptor (Homo sapiens, UniProt P41145); assay: cell-based
T1 construct: expressed in transfected cells; host or cells: CHO cells

Protein sequences, listed by entry. Tags and fused reporters are not part of them. Lines headed by an entry give the natural chain unless they say otherwise; changes in a name come on top.
UniProt P41145: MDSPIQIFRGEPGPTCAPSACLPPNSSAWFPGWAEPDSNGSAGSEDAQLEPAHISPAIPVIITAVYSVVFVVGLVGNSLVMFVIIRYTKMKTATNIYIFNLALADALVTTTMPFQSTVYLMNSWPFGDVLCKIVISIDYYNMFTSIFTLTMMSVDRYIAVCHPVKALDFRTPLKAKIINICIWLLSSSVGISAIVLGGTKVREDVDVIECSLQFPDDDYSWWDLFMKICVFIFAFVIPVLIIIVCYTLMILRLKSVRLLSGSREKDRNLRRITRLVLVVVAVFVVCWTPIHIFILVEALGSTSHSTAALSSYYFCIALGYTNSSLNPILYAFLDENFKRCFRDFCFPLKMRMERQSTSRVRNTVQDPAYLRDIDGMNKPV
UniProt P41143, whole entry: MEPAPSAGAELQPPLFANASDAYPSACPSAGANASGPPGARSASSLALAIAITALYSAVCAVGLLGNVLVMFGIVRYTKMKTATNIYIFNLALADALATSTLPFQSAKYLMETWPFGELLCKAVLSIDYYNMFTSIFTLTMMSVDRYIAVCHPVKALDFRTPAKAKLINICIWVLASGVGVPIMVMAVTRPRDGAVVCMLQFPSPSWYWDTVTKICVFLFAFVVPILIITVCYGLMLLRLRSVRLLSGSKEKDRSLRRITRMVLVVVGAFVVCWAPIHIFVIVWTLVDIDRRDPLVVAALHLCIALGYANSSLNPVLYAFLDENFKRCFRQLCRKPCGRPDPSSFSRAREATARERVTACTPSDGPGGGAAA

[2] = target: recombinant human delta opioid receptor (Homo sapiens, UniProt P41143); details: GTP-γS binding, screened up to 10 μM in agonist and antagonist mode

SMILES	EC50 [1] [µM]	effect at the delta opioid receptor [2]
COc1ccc2c3c1O[C@H]1[C@@H](O)C=C[C@H]4[C@@H](C2)N(C)CC[C@@]341 [Codeine, codeine, reference compound]	> 500	
COCCOCCOCCOCCOCCOCCOCCOCCOCCOC1CCC2(O)C3Cc4ccc(O)c5c4C2(CCN3CC2CCC2)C1O5 (centres unmarked) [6-O-mPEG9-Nalbuphine, 6-O-mPEG9-nalbuphine]		weak antagonistic

From patent publication US8569343B2, “Oligomer-opioid agonist conjugates” (Nektar Therapeutics, priority 2007, dated 2013)
